Results on one substance are retold here after CN106632674A.

By UniProt entry, the sequences of proteins in these tests, tags left out. Residues count along the entry.
UniProt Q15116, 25-170: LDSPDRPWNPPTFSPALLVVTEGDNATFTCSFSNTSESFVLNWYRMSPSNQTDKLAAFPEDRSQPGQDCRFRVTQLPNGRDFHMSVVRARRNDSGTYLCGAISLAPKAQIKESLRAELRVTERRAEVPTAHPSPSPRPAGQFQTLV

For assay [1], the target named is 抗原PD-1 (PD-1ECD released from PD-1-mFc by TEV protease, biotin-labelled) (human) (UniProt Q15116). Nature of the assay: BLI (Fortebio), error of kon. A general note: Biolayer interferometry detects binding as a change in optical thickness at a sensor tip.
For assay [2] the target is unchanged. Nature of the assay: BLI (Fortebio), error of kdis.
Assay [3] has the same target. In words: BLI (Fortebio), biotinylated PD-1 on SA sensor, antibody 3-fold dilutions from 200 nM.

What is called Kd is the constant that tells how readily two partners part at equilibrium. A word on the koff: it is a measure of how fast the partners let go of each other. Broadly, the kon is the second-order rate constant of association. As for 阳性对照抗体5C4 (antibody), the kon误差 in assay [1] was 17700 M⁻¹ s⁻¹. The kdis误差 in assay [2] worked out at 6.37e-06 s⁻¹. Also, in assay [3], the dissociation constant Kd is 111 pM, the koff was 0.000103 s⁻¹ and the association rate constant (kon) turned out to be 927000 M⁻¹ s⁻¹.
